# Assay results from PubChem BioAssay AID488847 (NMMLSC, 2010).
# Chains of the proteins cited; added tags and fusions are not shown.
# UniProt P25098, whole entry: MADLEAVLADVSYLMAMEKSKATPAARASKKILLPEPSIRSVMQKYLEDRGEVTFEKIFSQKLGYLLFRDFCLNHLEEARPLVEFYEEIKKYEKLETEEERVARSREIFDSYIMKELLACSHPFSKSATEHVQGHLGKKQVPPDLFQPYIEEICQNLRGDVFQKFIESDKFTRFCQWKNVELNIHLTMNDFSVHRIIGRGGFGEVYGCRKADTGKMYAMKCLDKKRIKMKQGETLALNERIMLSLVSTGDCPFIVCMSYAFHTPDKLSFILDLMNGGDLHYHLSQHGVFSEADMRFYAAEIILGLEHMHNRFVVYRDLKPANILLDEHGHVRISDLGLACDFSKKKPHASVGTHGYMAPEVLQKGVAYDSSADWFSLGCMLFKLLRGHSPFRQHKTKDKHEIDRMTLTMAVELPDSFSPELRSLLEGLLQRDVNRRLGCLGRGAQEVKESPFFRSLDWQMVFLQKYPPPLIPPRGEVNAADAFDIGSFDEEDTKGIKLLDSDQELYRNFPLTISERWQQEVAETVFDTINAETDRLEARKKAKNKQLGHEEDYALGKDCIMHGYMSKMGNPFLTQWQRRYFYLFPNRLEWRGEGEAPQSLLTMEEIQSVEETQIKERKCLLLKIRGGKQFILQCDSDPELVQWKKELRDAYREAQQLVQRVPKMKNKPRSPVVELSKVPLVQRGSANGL
# Only a part is listed here, and it is no random draw. Calls of active or inactive are those of the source.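 The calls were made as follows: active = inhibition of aptamer binding above 40%, roughly 3 SD of noise, on plates passing a quality check; inactive = the rest.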
# Biological target: Beta-adrenergic receptor kinase 1 (Homo sapiens) (UniProt P25098)
# Assay: compounds blocking aptamer binding on GRK2 – biochemical, human GRK2, bead flow cytometry, HTS, primary screen (AID 488847);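 also: median bead fluorescence of bound FAM aptamer so fluorescent compounds give negative values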
# Conditions: FAM-aptamer displacement from GRK2, at 10 µM, stronger effect = higher value
row,Structure (SMILES),inhibition of aptamer binding
1,CCC(=O)N(c1ccccc1)C1(COC)CCN(CCn2nnn(CC)c2=O)CC1,inactive: 3%
2,CCC(=O)N(c1ccccc1)C1(COC)CCN(CCc2cccs2)CC1,inactive: 4%
